Counter-ions that a name gives are not always drawn. Like-named read-outs stand apart in the source and are kept apart here.

Test systems include K562 cells; MOLM-13 cells; MV-4-11 cells.
What all share (experiment): cells
Settings in all cases: Homo sapiens

Where [1] appears, read: K562, 72 h, read-out: GI50 (μM) Day3 K562.
[2] abbreviates: K562, 168 h, read-out: GI50 (μM) Day7 K562.
[3] abbreviates: MOLM-13, 72 h, read-out: GI50 (μM) Day3 MOLM-13, MOLM-13, Day3.
[4] abbreviates: MOLM-13, 168 h, read-out: GI50 (μM) Day7 MOLM-13, MOLM-13, Day7.
Where [5] appears, read: MV4-11, 72 h, read-out: GI50 (μM) Day3 MV4;11, MV4;11, Day3.
The mark [6] stands for this setting: MV4-11, 168 h, read-out: GI50 (μM) Day7 MV4;11, MV4;11, Day7.

As usually defined, the GI50 is the concentration giving 50% growth inhibition. For `CN(c1ncnc2sc(CC(F)(F)F)cc12)[C@@H]1CC[C@H](NCc2ccc(NCc3ccccc3)cc2)C1` [Example 7, (1R,3S)—N^3-{[4-(benzylamino)phenyl]methyl}-N^1-methyl-N^1-[6-(2,2,2-trifluoroethyl)thieno[2,3-d]pyrimidin-4-yl]cyclopentane-1,3-diamine Hydrochloride], the concentration for 50% growth inhibition (GI50) with K562 cells (setting [1]) is 1.67 µM; with K562 cells (setting [2]) it was 0.95 µM; with MOLM-13 cells (setting [3]) it was 1.69 µM; in the assay with MOLM-13 cells (setting [4]), 1.82 µM; in the assay with MV-4-11 cells (setting [5]) it was 1.36 µM; in the assay with MV-4-11 cells (setting [6]), 0.908 µM.

`COc1cncc(Nc2ccc(CN[C@H]3CC[C@@H](N(C)c4ncnc5sc(CC(F)(F)F)cc45)C3)cc2)c1` [Example 8, (1R,3S)—N^3-({4-[(5-methoxypyridin-3-yl)amino]phenyl}methyl)-N^1-methyl-N^1-[6-(2,2,2-trifluoroethyl)thieno[2,3-d]pyrimidin-4-yl]cyclopentane-1,3-diamine Hydrochloride]: the GI50 is 2.73 µM in the assay on K562 cells (setting [1]); 1.44 µM in the assay with K562 cells (setting [2]); 0.87 µM with MOLM-13 cells (setting [3]); 0.592 µM in the assay on MOLM-13 cells (setting [4]); 0.408 µM with MV-4-11 cells (setting [5]); 0.201 µM in the assay with MV-4-11 cells (setting [6]).

For `COc1cncc(-c2ccc(CN[C@H]3CC[C@@H](N(C)c4ncnc5sc(CC6CC6)cc45)C3)cc2)c1` [Example 9, (1R,3S)—N^1-[6-(cyclopropylmethyl)thieno[2,3-d]pyrimidin-4-yl]-N^3-{[4-(5-methoxypyridin-3-yl)phenyl]methyl}-N^1-methylcyclopentane-1,3-diamine Hydrochloride], the figures for the concentration for 50% growth inhibition (GI50) in the assay with K562 cells (setting [1]), in the assay with MOLM-13 cells (setting [3]) and with MV-4-11 cells (setting [5]) were 2.95 µM, 1.61 µM and 0.585 µM, respectively.

As for `O=C(NC1COC1)c1ccc(CN[C@H]2CCC[C@@H](Nc3ncnc4sc(CC(F)(F)F)cc34)C2)cc1` [Example 10, N-(oxetan-3-yl)-4-({[(1S,3R)-3-{[6-(2,2,2-trifluoroethyl)thieno[2,3-d]pyrimidin-4-yl]amino}cyclohexyl]amino}methyl)benzamide Hydrochloride], the concentration for 50% growth inhibition (GI50) in the assay on K562 cells (setting [1]), in the assay on MOLM-13 cells (setting [3]) and in the assay on MV-4-11 cells (setting [5]) was above 10 µM in each case.

For `CN(c1ncnc2sc(CC(F)(F)F)cc12)[C@@H]1CC[C@H](NCc2ccc(-c3ccc(=O)[nH]c3)cc2)C1` [Example 11, 5-[4-({[(1S,3R)-3-{methyl[6-(2,2,2-trifluoroethyl)thieno[2,3-d]pyrimidin-4-yl]amino}cyclopentyl]amino}methyl)phenyl]pyridin-2(1H)-one Hydrochloride], the GI50 was 6.66 µM with K562 cells (setting [1]); 3.82 µM in the assay on K562 cells (setting [2]); 3.28 µM with MOLM-13 cells (setting [3]); 1.19 µM in the assay on MOLM-13 cells (setting [4]); 1.3 µM in the assay on MV-4-11 cells (setting [5]); 0.711 µM in the assay with MV-4-11 cells (setting [6]).

On to `CN(c1ncnc2sc(CC(F)(F)F)cc12)[C@@H]1CC[C@H](NCc2ccc(Nc3cnn(C)c3)cc2)C1` [Example 12, (1R,3S)—N^1-methyl-N^3-({4-[(1-methyl-1H-pyrazol-4-yl)amino]phenyl}methyl)-N^1-[6-(2,2,2-trifluoroethyl)thieno[2,3-d]pyrimidin-4-yl]cyclopentane-1,3-diamine], for which the concentration for 50% growth inhibition (GI50) in the assay on K562 cells (setting [1]) is 6.72 µM; with MOLM-13 cells (setting [3]) it was 2.72 µM; in the assay with MV-4-11 cells (setting [5]), 0.702 µM.

On to `CN(c1ncnc2sc(CC(F)(F)F)cc12)[C@@H]1CC[C@H](NCc2ccc(-c3ccc(-c4ccc(Cl)nc4)nc3)cc2)C1` [Example 13, (1R,3S)—N^3-{[4-(6′-chloro[2,3′-bipyridine]-5-yl)phenyl]methyl}-N^1-methyl-N^1-[6-(2,2,2-trifluoroethyl)thieno[2,3-d]pyrimidin-4-yl]cyclopentane-1,3-diamine], for which the 50% growth inhibitory concentration (GI50) worked out at 2.16 µM with K562 cells (setting [1]), 1.01 µM in the assay on MOLM-13 cells (setting [3]) and 0.273 µM in the assay with MV-4-11 cells (setting [5]).

Turning to `CN(c1ncnc2sc(CC(F)(F)F)cc12)[C@@H]1CC[C@H](NCc2ccc(-c3cnc4ccoc4c3)cc2)C1` [Example 14, (1R,3S)—N^3-{[4-(furo[3,2-b]pyridin-6-yl)phenyl]methyl}-N^1-methyl-N^1-[6-(2,2,2-trifluoroethyl)thieno[2,3-d]pyrimidin-4-yl]cyclopentane-1,3-diamine Hydrochloride], the figures for the GI50 with K562 cells (setting [1]), in the assay on MOLM-13 cells (setting [3]) and with MV-4-11 cells (setting [5]) were 2.23 µM, 1.48 µM and 0.655 µM, respectively.

As to `COc1cncc(-c2ccc(CN(C)[C@@H]3C[C@H](O)C[C@H](Nc4ncnc5sc(CC(F)(F)F)cc45)C3)cc2)c1` [Example 16, (1R,3S,5R)-3-[{[4-(5-methoxypyridin-3-yl)phenyl]methyl}(methyl)amino]-5-{[6-(2,2,2-trifluoroethyl)thieno[2,3-d]pyrimidin-4-yl]amino}cyclohexan-1-ol], the GI50 in the assay on K562 cells (setting [1]) amounted to 7.43 µM; in the assay on MOLM-13 cells (setting [3]), 6.04 µM; in the assay on MV-4-11 cells (setting [5]), 5.18 µM.

Consider `COc1cncc(-c2ccc(CN[C@@H]3C[C@H](N(C)c4ncnc5sc(CC(F)(F)F)cc45)[C@H](O)[C@@H]3O)cc2)c1` [Example 20A, (1S,2R,3R,5S)-3-({[4-(5-methoxypyridin-3-yl)phenyl]methyl}amino)-5-{methyl[6-(2,2,2-trifluoroethyl)thieno[2,3-d]pyrimidin-4-yl]amino}cyclopentane-1,2-diol Hydrochloride], for which the GI50 with K562 cells (setting [1]) is 5.73 µM; in the assay with K562 cells (setting [2]), 2.86 µM; in the assay on MOLM-13 cells (setting [3]) it was 2.9 µM; with MOLM-13 cells (setting [4]), 0.352 µM; with MV-4-11 cells (setting [5]), 0.367 µM; in the assay on MV-4-11 cells (setting [6]) it was 0.177 µM.

In the case of `COc1cncc(-c2ccc(CN[C@@H]3C[C@H](N(C)c4ncnc5sc(CC(F)(F)F)cc45)[C@@H](O)[C@H]3O)cc2)c1` [Example 20B, (1R,2S,3R,5S)-3-({[4-(5-methoxypyridin-3-yl)phenyl]methyl}amino)-5-{methyl[6-(2,2,2-trifluoroethyl)thieno[2,3-d]pyrimidin-4-yl]amino}cyclopentane-1,2-diol Hydrochloride], the concentration for 50% growth inhibition (GI50) is 9.03 µM in the assay with K562 cells (setting [1]); 4.65 µM in the assay on K562 cells (setting [2]); 4.02 µM in the assay on MOLM-13 cells (setting [3]); 0.379 µM with MOLM-13 cells (setting [4]); 0.331 µM in the assay on MV-4-11 cells (setting [5]); 0.226 µM in the assay on MV-4-11 cells (setting [6]).

`CN(c1nc(N)nc2sc(CC(F)(F)F)cc12)[C@H]1C[C@@H](NCc2ccc(-n3ccnc3)cc2)C[C@H]1O` [Example 21, (1R,2S,4R)-2-{[2-amino-6-(2,2,2-trifluoroethyl)thieno[2,3-d]pyrimidin-4-yl](methyl)amino}-4-({[4-(1H-imidazol-1-yl)phenyl]methyl}amino)cyclopentan-1-ol Hydrochloride]: the GI50 was 5.75 µM with K562 cells (setting [1]); 9.6 µM with K562 cells (setting [2]); 4.5 µM with MOLM-13 cells (setting [3]); 0.509 µM in the assay on MOLM-13 cells (setting [4]); 0.304 µM in the assay on MV-4-11 cells (setting [5]); 0.173 µM with MV-4-11 cells (setting [6]).

Consider `CNc1nc(N(C)[C@H]2C[C@@H](NCc3ccc(-c4cnc(OC)c(OC)c4)cc3)C[C@@H]2OC)c2cc(CC(F)(F)F)sc2n1` [Example 24, N^4-[(1S,2S,4R)-4-({[4-(5,6-dimethoxypyridin-3-yl)phenyl]methyl}amino)-2-methoxycyclopentyl]-N^2,N^4-dimethyl-6-(2,2,2-trifluoroethyl)thieno[2,3-d]pyrimidine-2,4-diamine Hydrochloride], for which the concentration for 50% growth inhibition (GI50) with K562 cells (setting [1]) came out at 3.23 µM; with K562 cells (setting [2]), 2.57 µM; with MOLM-13 cells (setting [3]), 0.873 µM; in the assay on MOLM-13 cells (setting [4]), 0.104 µM; with MV-4-11 cells (setting [5]), 0.0609 µM; in the assay with MV-4-11 cells (setting [6]) it was 0.0302 µM.

Take `CC(=O)Nc1ccc(CN[C@H]2CCC[C@@H](Nc3ncnc4sc(CC(F)(F)F)cc34)C2)cc1` [Example 29, N-[4-({[(1S,3R)-3-{[6-(2,2,2-trifluoroethyl)thieno[2,3-d]pyrimidin-4-yl]amino}cyclohexyl]amino}methyl)phenyl]acetamide hydrochloride]: the GI50 in the assay with K562 cells (setting [1]) was above 10 µM; with K562 cells (setting [2]) it was 7.77 µM; in the assay on MOLM-13 cells (setting [4]), 1.66 µM; in the assay on MV-4-11 cells (setting [5]), 1.26 µM; in the assay on MV-4-11 cells (setting [6]), 1.07 µM.

On to `C=CS(=O)(=O)NCCCNC(=O)c1ccc(CN[C@H]2CC[C@@H](N(C)c3ncnc4sc(CC(F)(F)F)cc34)C2)cc1` [Example 34, N-{-3-[(ethenesulfonyl)amino]propyl}-4-({[(1S,3R)-3-{methyl[6-(2,2,2-trifluoroethyl)thieno[2,3-d]pyrimidin-4-yl]amino}cyclopentyl]amino}methyl)benzamide hydrochloride], for which the GI50 in the assay with K562 cells (setting [1]) was determined as 4.49 µM; with K562 cells (setting [2]), 2.77 µM; in the assay with MOLM-13 cells (setting [3]), 0.718 µM; in the assay with MOLM-13 cells (setting [4]), 0.444 µM; in the assay on MV-4-11 cells (setting [5]), 0.42 µM; in the assay with MV-4-11 cells (setting [6]), 0.106 µM.

For the compound `FC(F)(F)Cc1cc2c(N[C@@H]3CCC[C@H](NCc4ccc(-c5ncco5)cc4)C3)ncnc2s1` [Example 35, (1S,3R)-N^1-{[4-(1,3-oxazol-2-yl)phenyl]methyl}-N^3-[6-(2,2,2-trifluoroethyl)thieno[2,3-d]pyrimidin-4-yl]cyclohexane-1,3-diamine hydrochloride], the concentration for 50% growth inhibition (GI50) with K562 cells (setting [1]) came out at 6.97 µM; with MOLM-13 cells (setting [3]), 5.72 µM; with MV-4-11 cells (setting [5]), 4.34 µM.

With `CN(c1ncnc2sc(CC(F)(F)F)cc12)[C@@H]1CC[C@H](NCc2cncs2)C1` [Example 36, (1R,3S)-N^1-methyl-N^3-[(1,3-thiazol-5-yl)methyl]-N^1-[6-(2,2,2-trifluoroethyl)thieno[2,3-d]pyrimidin-4-yl]cyclopentane-1,3-diamine hydrochloride], the GI50 in the assay with K562 cells (setting [1]) is above 10 µM; with MOLM-13 cells (setting [3]), 3.14 µM; in the assay with MV-4-11 cells (setting [5]) it was 3.13 µM.

Regarding `FC(F)(F)Cc1cc2c(N[C@@H]3CCC[C@H](NCc4ccc(-c5nnc[nH]5)cc4)C3)ncnc2s1` [Example 37, (1S,3R)-N^1-{[4-(4H-1,2,4-triazol-3-yl)phenyl]methyl}-N^3-[6-(2,2,2-trifluoroethyl)thieno[2,3-d]pyrimidin-4-yl]cyclohexane-1,3-diamine hydrochloride], the GI50 is above 10 µM with K562 cells (setting [1]), 7.21 µM in the assay with MOLM-13 cells (setting [3]) and 5.21 µM with MV-4-11 cells (setting [5]).

For the origin of these results see US11236106B2, “Cycloalkane-1,3-diamine derivative” (Daiichi Sankyo Company, Limited, priority 2018, dated 2022).
